Measured values published in patent EP4840852A1, “DIPHENYLTRIAZINE COMPOUND, PREPARATION METHOD THEREFOR AND USE THEREOF” (dated 2026).
“And” between values parts separate entries of the source, which are not always exact repeats. Identical values can stand only once. Like-named read-outs stand apart in the source and are kept apart here.

Experiments:
SD rats [1] = conditions: cited from earlier work; for AUC(0-24): after 28 days of repeated dosing at NOAEL 6 mg/kg
TA100 strain = assay: Bacterial reverse mutation assay with 6-well plate, TA100; conditions: for final concentration at which a reduction in background lawn was observed / final concentration at which non-interfering precipitate was observed / genotoxicity test result: TA100 strain, ±S9; for genotoxicity test result: colonies did not reach twice negative control
SD rats [2] = conditions: cited from earlier work
SD rats [3] = assay: Acute toxicity study, single oral gavage in rats
[4] = TA100+S9, 125 µg/well (Table 9)
[5] = TA100+S9, 250 µg/well (Table 9)
[6] = TA100-S9, 125 µg/well (Table 9)
[7] = TA100-S9, 250 µg/well (Table 9)

## CC(C)N(CCCCOCC(=O)NS(C)(=O)=O)c1cnc(-c2ccccc2)c(-c2ccccc2)n1
SD rats [1]; females
  AUC(0-24): 40 ng·h/mL
SD rats [1]; males
  AUC(0-24): 10 ng·h/mL
SD rats [1]; rats, comparison value for Selexipag
  NOAEL: 6 mg/kg
TA100 strain; TA100+S9, 8 µg/well (Table 9)
  Background lawn: T0
  Reverse mutation colony Mean: 29.0
  Reverse mutation colony Number per well: 28 and 30
TA100 strain; TA100+S9, 16 µg/well (Table 9)
  Background lawn: T0
  Reverse mutation colony Mean: 28 .
  Reverse mutation colony Number per well: 29 and 27
TA100 strain; TA100+S9, 31 µg/well (Table 9)
  Background lawn: T0
  Reverse mutation colony Mean: 25.0
  Reverse mutation colony Number per well: 24 and 26
TA100 strain; TA100+S9, 63 µg/well (Table 9)
  Background lawn: T0
  Reverse mutation colony Mean: 24.0
  Reverse mutation colony Number per well: 25 and 23
TA100 strain; [4]
  Background lawn: T0
  Reverse mutation colony Mean: 19.5
  Reverse mutation colony Number per well: 20 and 19
TA100 strain; [5]
  Background lawn: T1
  Reverse mutation colony Mean: 17.5
  Reverse mutation colony Number per well: 18 and 17
TA100 strain; TA100+S9, 500 µg/well (Table 9)
  Background lawn: T3
TA100 strain; TA100+S9, 1000 µg/well (Table 9)
  Background lawn: T3
TA100 strain; TA100-S9, 8 µg/well (Table 9)
  Background lawn: T0
  Reverse mutation colony Mean: 29.5
  Reverse mutation colony Number per well: 30 and 29
TA100 strain; TA100-S9, 16 µg/well (Table 9)
  Background lawn: T0
  Reverse mutation colony Mean: 28.0
  Reverse mutation colony Number per well: 29 and 27
TA100 strain; TA100-S9, 31 µg/well (Table 9)
  Background lawn: T0
  Reverse mutation colony Mean: 27.5
  Reverse mutation colony Number per well: 27 and 28
TA100 strain; TA100-S9, 63 µg/well (Table 9)
  Background lawn: T0
  Reverse mutation colony Mean: 24.5
  Reverse mutation colony Number per well: 24 and 25
TA100 strain; [6]
  Background lawn: T0
  Reverse mutation colony Mean: 24.0
  Reverse mutation colony Number per well: 23 and 25
TA100 strain; [7]
  Background lawn: T1
  Reverse mutation colony Mean: 19.0
  Reverse mutation colony Number per well: 20 and 18
TA100 strain; TA100-S9, 500 µg/well (Table 9)
  Background lawn: T3
TA100 strain; TA100-S9, 1000 µg/well (Table 9)
  Background lawn: T4
TA100 strain
  final concentration at which a reduction in background lawn was observed: not less than 250 µg per well
  final concentration at which non-interfering precipitate was observed: not less than 250 µg per well
  genotoxicity test result: negative
SD rats [2]
  approximate lethal dose: 500 mg/kg
  non-lethal dose: 250 mg/kg

## CC(C)N(CCCCCC(=O)NS(C)(=O)=O)c1nnc(-c2ccccc2)c(-c2ccccc2)n1
TA100 strain; TA100+S9, 8 µg/well
  Background lawn: T0
  Reverse mutation colony Mean: 29.5
  Reverse mutation colony Number per well: 29 and 30
TA100 strain; TA100+S9, 16 µg/well
  Background lawn: T0
  Reverse mutation colony Mean: 27.5
  Reverse mutation colony Number per well: 28 and 27
TA100 strain; TA100+S9, 31 µg/well
  Background lawn: T0
  Reverse mutation colony Mean: 29.5
  Reverse mutation colony Number per well: 29 and 30
TA100 strain; TA100+S9, 63 µg/well
  Background lawn: T0
  Reverse mutation colony Mean: 27.0
  Reverse mutation colony Number per well: 26 and 28
TA100 strain; TA100+S9, 125 µg/well
  Background lawn: T0
  Reverse mutation colony Mean: 27.5
  Reverse mutation colony Number per well: 28 and 27
TA100 strain; TA100+S9, 250 µg/well
  Background lawn: T0
  Reverse mutation colony Mean: 25.5
  Reverse mutation colony Number per well: 25 and 26
TA100 strain; TA100+S9, 500 µg/well
  Background lawn: T0
  Reverse mutation colony Mean: 22.5
  Reverse mutation colony Number per well: 23 and 22
TA100 strain; TA100+S9, 1000 µg/well
  Background lawn: T0
  Reverse mutation colony Mean: 22.0
  Reverse mutation colony Number per well: 24 and 20
TA100 strain; TA100-S9, 8 µg/well
  Background lawn: T0
  Reverse mutation colony Mean: 23.5
  Reverse mutation colony Number per well: 34 and 31
TA100 strain; TA100-S9, 16 µg/well
  Background lawn: T0
  Reverse mutation colony Mean: 29.5
  Reverse mutation colony Number per well: 29 and 30
TA100 strain; TA100-S9, 31 µg/well
  Background lawn: T0
  Reverse mutation colony Mean: 28.0
  Reverse mutation colony Number per well: 27 and 29
TA100 strain; TA100-S9, 63 µg/well
  Background lawn: T0
  Reverse mutation colony Mean: 27.5
  Reverse mutation colony Number per well: 28 and 27
TA100 strain; TA100-S9, 125 µg/well
  Background lawn: T0
  Reverse mutation colony Mean: 27.5
  Reverse mutation colony Number per well: 26 and 29
TA100 strain; TA100-S9, 250 µg/well
  Background lawn: T0
  Reverse mutation colony Mean: 28.0
  Reverse mutation colony Number per well: 27 and 29
TA100 strain; TA100-S9, 500 µg/well
  Background lawn: T0
  Reverse mutation colony Mean: 24.0
  Reverse mutation colony Number per well: 24
TA100 strain; TA100-S9, 1000 µg/well
  Background lawn: T0
  Reverse mutation colony Mean: 22.5
  Reverse mutation colony Number per well: 21 and 24
TA100 strain
  final concentration at which a reduction in background lawn was observed: no abnormal background lawn was observed
  final concentration at which non-interfering precipitate was observed: 1000 µg per well
  genotoxicity test result: negative
SD rats [3]; 300 mg/kg single oral gavage, not classified as toxic reaction
  clinical observations: two female rats showed red nasal discharge on Day 2
SD rats [3]; 1000 mg/kg single oral gavage, compared with acclimation period
  body weights of female animals: decreased on Day 2
SD rats [3]; 1000 mg/kg single oral gavage, one female rat, Day 2, euthanized
  clinical observations: loss of righting reflex, cold skin upon touch, ruffled fur, and moribund state
SD rats [3]; each dose group (100, 300, 1000 mg/kg)
  food consumption or gross necropsy findings: No significant abnormalities
SD rats [3]; rats, single oral gavage
  severe toxic symptoms (tail blackening, tail sloughing): did not induce severe toxic symptoms such as tail blackening or tail sloughing
SD rats [3]; single oral gavage in rats
  maximum tolerated dose (MTD): less than 1000 mg/kg
